Target: T1, GABA-ρ1 receptors (Homo sapiens, UniProt P24046)
T1 construct: expressed in transfected cells; host or cells: Xenopus laevis oocytes injected with cRNA
Assay: Two-electrode voltage-clamp, co-application of ligand with GABA EC50 at GABA-ρ1 receptors (additive/inhibition)
Type: cell-based
Conditions: co-application curve with GABA EC50
Experimental: The activity of receptors was tested by recording whole cell currents using the two-electrode voltage clamp technique as previously reported. In brief, fabricated microelectrodes prepared with a micropipette puller (Sutter instruments, Novato, CA, USA), were filled with 3 M KCl solution (0.3–2.3 MΩ). Oocytes were immersed with ND96 buffer in the cell chamber at approximately 5 mL/min rate. The microelectrode impaled cells were clamped at −60 mV (voltage), and the currents elicited in response to the application of ligand/s was recorded using a Power Lab 2/25 analogue–digital data acquisition system (AD Instruments, Sydney, NSW, Australia), a Geneclamp 500 B amplifier (Axon Instrument, Foster City, CA, USA), and Lab Chart version 5.0.2 program (ADInstruments, Sydney, Australia).
Ligands were applied into the perfusate until a peak response (maximal) was reached. All stock solutions of the ligands were freshly made on the day of experiments. Solutions of ligands dissolved in DMSO were standardized to contain less than 0.8% DMSO in the final perfusate solution to prevent any alteration in the recordings. Perfusates containing these ligands (chemicals) were freshly prepared before each application. The dose–response curves of ligands were obtained by increasing the concentrations of applied agonists on oocytes until the maximum current reached. […]

Chains of the proteins cited; added tags and fusions are not shown. Residues count along the entry.
UniProt P24046, 22-479: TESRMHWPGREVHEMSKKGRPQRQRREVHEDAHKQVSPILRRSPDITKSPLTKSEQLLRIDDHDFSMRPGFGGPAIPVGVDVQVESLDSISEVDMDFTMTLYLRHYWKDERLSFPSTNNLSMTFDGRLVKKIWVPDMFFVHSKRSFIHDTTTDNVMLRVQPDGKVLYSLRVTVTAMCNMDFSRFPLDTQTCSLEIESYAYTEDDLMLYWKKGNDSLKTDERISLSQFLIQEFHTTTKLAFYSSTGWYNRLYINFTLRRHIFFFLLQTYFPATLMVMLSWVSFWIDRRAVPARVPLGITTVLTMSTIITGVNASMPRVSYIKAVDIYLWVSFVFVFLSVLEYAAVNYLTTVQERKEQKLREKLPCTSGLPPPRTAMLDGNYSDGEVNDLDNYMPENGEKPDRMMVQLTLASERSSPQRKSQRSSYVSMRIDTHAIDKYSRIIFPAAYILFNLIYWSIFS

For `NCC(=O)O` [Glycine, glycine], the “GABA-ρ1 Additive/Inhibition Hill slope” value was 1.23 ± 0.42.
